Test results as given in US9809653B2, “Anti-LAMP1 antibodies and antibody drug conjugates, and uses thereof” (SANOFI, priority 2012, dated 2017).

Legend:
[1] = tested on: human primary invasive ductal carcinoma BRE-IGR-0159; assay: Anti-tumor activity against human primary invasive ductal carcinoma BRE-IGR-0159; conditions: for Average body weight change in % per mouse at nadir (day of nadir): nadir day 17; for Median ΔT/ΔC in % day: day 35
[2] = tested on: primary human colon adenocarcinoma CR-LRB-010P; assay: Anti-tumor activity against primary human colon adenocarcinoma CR-LRB-010P; conditions: day 19
Description: Control groups were left untreated. […] Animal body weights included the tumor weights. Tumor volumes were estimated from 2 dimensional tumor measurements and calculated according to the following formula (Corbett, T. H. et al., 1977, Cancer 40: 2660-2680): Tumor volume (mm^3)=[Length (mm)×Width^2 (mm^2)]/2. The primary efficacy end points are ratio of change in tumor volume changes from baseline between treated and control groups (ΔT/ΔC), percent median regression, partial regression (PR) and complete regression (CR).
Changes in tumor volume for each treated (T) and control (C) are calculated for each tumor by subtracting the tumor volume on the day of first treatment from the tumor volume on the specified observation day. The median ΔC is calculated for the untreated control group and the median ΔT is calculated for the treated group. Then the ratio ΔT/ΔC is calculated and expressed as a percentage: ΔT/ΔC=(delta T/delta C)×100 as described before
The dose is considered as therapeutically active when ΔT/ΔC is lower than 40% and very active when ΔT/ΔC is lower than 10%.
% tumor regression: is defined as the % of tumor volume decrease in the treated group at a specified observation day compared to its volume on the first day of first treatment.
At a specific time point and for each animal, % regression is calculated. The median % regression is then calculated for the group.
Partial regression (PR): Regressions are defined as partial if the tumor volume decreases to 50% of the tumor volume at the start of treatment.
Complete regression (CR): Complete regression is achieved when tumor volume=0 mm^3 (CR is considered when tumor volume cannot be recorded).
Control groups were left untreated.

[3] = molecular target: T1, LAMP1 (SEQ ID NO: 28 protein) (Homo sapiens, UniProt P11279); assay: Affinity to LAMP1 by SPR (BIAcore 2000); assay type: binding
T1 construct: made in house; host or cells: HEK293 (293-F), transient expression, IMAC-purified
T1 sequence (P11279 with tags, fused parts or gaps): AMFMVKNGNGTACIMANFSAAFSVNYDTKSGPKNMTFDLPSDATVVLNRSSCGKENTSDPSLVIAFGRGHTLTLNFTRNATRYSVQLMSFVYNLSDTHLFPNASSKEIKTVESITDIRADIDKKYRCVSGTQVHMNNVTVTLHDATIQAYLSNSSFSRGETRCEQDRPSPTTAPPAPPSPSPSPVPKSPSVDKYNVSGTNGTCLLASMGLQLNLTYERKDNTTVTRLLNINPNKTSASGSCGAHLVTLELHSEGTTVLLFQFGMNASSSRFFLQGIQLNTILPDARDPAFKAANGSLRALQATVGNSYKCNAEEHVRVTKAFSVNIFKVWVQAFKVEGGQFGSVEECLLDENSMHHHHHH
Description: The use of surface plasmon resonance to determine is known to the skilled in the art. In one example the binding kinetics of for example the murine, chimer or humanized anti-LAMP1 mAbs were determined by surface plasmon resonance assay using typically a BIAcore 2000 (BIAcore Inc., Uppsala, N.J.). Therefore, for example a CM5 BIAcore biosensor chip was docked into the instrument and activated with for example 70 μL of 1:1 NHS/EDC at room temperature. Typically, a mouse anti-αhuman Fc IgG1 (BIAcore #BR-1008-39) and rabbit anti-αmurine Fc IgG1 (BIAcore #BR-1008-38) (50 μg/mL in 1 M acetate buffer, pH5) were immobilized on the activated chips in all flow cells. The immobilization was carried out at a flow rate of for example 10 μL/min up to saturation. The chip was then blocked by for example injection of 70 μL of ethanolamine-HCl, pH 8.5, followed by one wash with 3 M MgCl2 for anti-αhuman Fc IgG1 and one wash with 10 mM Glycine-HCl pH 1.7 for anti-αmurine Fc IgG1. To measure the binding of for example anti-LAMP1 mAbs to LAMP1, antibodies were used at 1-5 μg/mL in BIAcore running buffer (HBS-EP). The antigen for example (Sequence ID No 28 protein produced as described in example 6.2) was injected from for example 1 to 256 nM. Following completion of the injection phase, dissociation was monitored in a BIAcore running buffer at the same flow rate for typically 600 sec. The surface was typically regenerated between injections using for example 2×5 μL 3 M MgCl2 (2×30 s) or anti-αhuman Fc IgG1 and 1×30 μL 10 mM Glycine-HCl pH 1.7 for anti-αmurine Fc IgG1 (180 s). Individual sensorgrams were typically analyzed using BIAevaluation software.
The binding kinetics of the murine, chimer or humanized anti-LAMP1 mAbs were determined by surface plasmon resonance assay using a BIAcore 2000 (BIAcore Inc., Uppsala, N.J.). Briefly, a CM5 BIAcore biosensor chip was docked into the instrument and activated with 70 μL of 1:1 NHS/EDC at room temperature. A mouse anti-αhuman Fc IgG1 (BIAcore #BR-1008-39) and rabbit anti-αmurine Fc IgG1 (BIAcore #BR-1008-38) (50 μg/mL in 1 M acetate buffer, pH5) were immobilized on the activated chips in all flow cells. The immobilization was carried out at a flow rate of 10 μL/min up to saturation. The chip was then blocked by injection of 70 μL of ethanolamine-HCl, pH 8.5, followed by one wash with 3 M MgCl2 for anti-αhuman Fc IgG1 and one wash with 10 mM Glycine-HCl pH 1.7 for anti-αmurine Fc IgG1. To measure the binding of anti-LAMP1 mAbs to LAMP1, antibodies were used at 1-5 μg/mL in BIAcore running buffer (HBS-EP). […] Following completion of the injection phase, dissociation was monitored in a BIAcore running buffer at the same flow rate for 600 sec. […] Individual sensorgrams were analyzed using BIAevaluation software.

[4] = DM4-SPDB-chMAb2 5 mg/kg single IV
[5] = DM4-SPDB-chMAb2 10 mg/kg single IV

B1: DM4-SPDB-chMAb2 (conjugate)
heavy: QVQLQQSAAELARPGASVKMSCKASGYTFTSYTMHWVKQRPGQGLEWIGYFNPSSGYPEYNQKFKDKTTLTADKSSNTAFIQLNSLTSEDSAVYYCSRGYYYGSRGYALDFWGQGTSVTVSSASTKGPSVFPLAPSSKSTSGGTAALGCLVKDYFPEPVTVSWNSGALTSGVHTFPAVLQSSGLYSLSSVVTVPSSSLGTQTYICNVNHKPSNTKVDKKV[not shown - human IgG1 Fc]
light: NIVLTQSPASLAVSLGQRATISCRASESVDINGNTFMHWYQQKPGQSPKLLIYAASNLESGVPARFSGSGSGTDFTFTIDPVEADDVATYYCQQNIEDPWTFGGGTKLEIKRTVAAPSVFIFPPSDEQLKSGTASVVCLLNNFYPREAKVQWKVDNALQSGNSQESVTEQDSKDSTYSLSSTLTLSKADYEKHKVYACEVTHQGLSSPVTKSFNRGEC
In the case of B1, the “Regressions Complete” value ([1]; 5.0 mg/kg IV, day 14) is reported as 6/6, the “Regressions Partial” value ([1]; 5.0 mg/kg IV, day 14) is reported as 6/6 and the “Median % of regression on day 24” value ([1]; 5.0 mg/kg IV, day 14) is reported as 100%. For the same molecule, the “Median ΔT/ΔC in % day 24” value ([1]; 5.0 mg/kg IV, day 14) was less than 0%, the “Tumor Free survivor on day 124” value ([1]; 5.0 mg/kg IV, day 14) was 6/6 and the “Average body weight change in % per mouse at nadir (day of nadir)” value ([1]; 5.0 mg/kg IV, day 14) was −6.9 (17) %. The “Drug death (Day of death)” value ([1]; 5.0 mg/kg IV, single injection day 14) was 0/6, the “Regressions Complete” value ([1]; 10.0 mg/kg IV, day 14) was 5/5 and the “Regressions Partial” value ([1]; 10.0 mg/kg IV, day 14) was 5/5. For the same molecule, the “Median % of regression on day 24” value ([1]; 10.0 mg/kg IV, day 14) was 100%, the “Median ΔT/ΔC in % day 24” value ([1]; 10.0 mg/kg IV, day 14) was less than 0% and the “Tumor Free survivor on day 124” value ([1]; 10.0 mg/kg IV, day 14) was 5/5. The “Average body weight change in % per mouse at nadir (day of nadir)” value ([1]; 10.0 mg/kg IV, day 14) was −5.2 (17) %, the “Drug death (Day of death)” value ([1]; 10.0 mg/kg IV, single injection day 14) was 0/6 and the “Drug death (Day of death)” value [2, 4] was 0/6. The “Regressions Complete” value [2, 4] was 0/6, the “Regressions Partial” value [2, 4] was 0/6 and the “Median ΔT/ΔC in % day” value ([2]; DM4-SPDB-chMAb2 5 mg/kg single IV, day 28, 5 mg/kg) was 10% and 10 (28) %. The “Average body weight change in % per mouse at nadir (day of nadir)” value ([2]; DM4-SPDB-chMAb2 5 mg/kg single IV, nadir day 37) was −2.4 (37) %, the “Drug death (Day of death)” value [2, 5] was 0/6 and the “Regressions Complete” value [2, 5] was 0/6. For the same molecule, the “Regressions Partial” value [2, 5] was 1/6, the “Median % of regression on day” value ([2]; DM4-SPDB-chMAb2 10 mg/kg single IV, day 31) was 36 (31) % and the “Median ΔT/ΔC in % day” value ([2]; DM4-SPDB-chMAb2 10 mg/kg single IV, day 31, 10 mg/kg) was < 0% and <0 (31) %. The “Average body weight change in % per mouse at nadir (day of nadir)” value ([2]; DM4-SPDB-chMAb2 10 mg/kg single IV, nadir day 20) was −1.6 (20) %.

B2: chMAb2can: chimeric antibody from MAb2can, heavy chain SEQ ID NO: 21, light chain SEQ ID NO: 22 (antibody)
heavy: B1 heavy
light: B1 light
modifications: antibody fragment
B2 was tested, and the ka [3] was 72100 M⁻¹ s⁻¹ and the kd [3] was 0.00496 s⁻¹.

B3: chMAb3VL_R24_R93: chimeric antibody, heavy chain SEQ ID NO: 49, light chain SEQ ID NO: 81 (antibody)
heavy: QIQLVQSGPELKKPGETVKISCKASGYIFTNYGMNWVKQAPGKGLKWMGWINTYTGESRYADDFKGRFALSLETSASTAYLQINNLENEDMATYFCAREDYYGNSPWFFDVWGAGTTVTVSSASTKGPSVFPLAPSSKSTSGGTAALGCLVKDYFPEPVTVSWNSGALTSGVHTFPAVLQSSGLYSLSSVVTVPSSSLGTQTYICNVNHKPSNTKVDKKV[not shown - human IgG1 Fc]
light: DIQMTQTTSSLSASLGDRVTISCRASQGINKYLNWYQQKPDGTVKLLIYYTSTLHSGVPSRFSGSGSGTDYSLTINNLEPEDIATYYCQQYTRLPFTFGSGTKLEIKRTVAAPSVFIFPPSDEQLKSGTASVVCLLNNFYPREAKVQWKVDNALQSGNSQESVTEQDSKDSTYSLSSTLTLSKADYEKHKVYACEVTHQGLSSPVTKSFNRGEC
modifications: HC chMAb3; chimeric
B3 showed a ka [3] of 173000 M⁻¹ s⁻¹ and a kd [3] of 0.00125 s⁻¹.

B4: DM4-SPDB-chMAb3 (conjugate)
heavy: B3 heavy
light: B3 light
In the case of B4, the “Regressions Complete” value ([1]; 1.25 mg/kg IV, day 16) is reported as 6/6, the “Regressions Partial” value ([1]; 1.25 mg/kg IV, day 16) is reported as 6/6 and the “Median ΔT/ΔC in % day” value ([1]; 1.25 mg/kg IV, day 16) is reported as <0 (35) %. For the same molecule, the “Tumor free survivors day 76” value ([1]; 1.25 mg/kg IV, day 16) was 2/6, the “Average body weight change in % per mouse at nadir (day of nadir)” value ([1]; 1.25 mg/kg IV, day 16) was −1.7 (17) % and the “Drug death (Day of death)” value ([1]; 1.25 mg/kg IV, single injection day 16) was 0/6. The “Regressions Complete” value ([1]; 5.0 mg/kg IV, day 16) was 6/6, the “Regressions Partial” value ([1]; 5.0 mg/kg IV, day 16) was 6/6 and the “Median ΔT/ΔC in % day” value ([1]; 5.0 mg/kg IV, day 16) was <0 (35) %. The “Tumor free survivors day 76” value ([1]; 5.0 mg/kg IV, day 16) was 6/6, the “Average body weight change in % per mouse at nadir (day of nadir)” value ([1]; 5.0 mg/kg IV, day 16) was −2.8 (17) % and the “Drug death (Day of death)” value ([1]; 5.0 mg/kg IV, single injection day 16) was 0/6.

Where “and” joins values, the source holds several entries; their conditions need not be identical. Equal values may be shown once.
